Like-named read-outs stand apart in the source and are kept apart here.

Chains of the proteins cited; added tags and fusions are not shown.
UniProt Q9Y5Y4, whole entry: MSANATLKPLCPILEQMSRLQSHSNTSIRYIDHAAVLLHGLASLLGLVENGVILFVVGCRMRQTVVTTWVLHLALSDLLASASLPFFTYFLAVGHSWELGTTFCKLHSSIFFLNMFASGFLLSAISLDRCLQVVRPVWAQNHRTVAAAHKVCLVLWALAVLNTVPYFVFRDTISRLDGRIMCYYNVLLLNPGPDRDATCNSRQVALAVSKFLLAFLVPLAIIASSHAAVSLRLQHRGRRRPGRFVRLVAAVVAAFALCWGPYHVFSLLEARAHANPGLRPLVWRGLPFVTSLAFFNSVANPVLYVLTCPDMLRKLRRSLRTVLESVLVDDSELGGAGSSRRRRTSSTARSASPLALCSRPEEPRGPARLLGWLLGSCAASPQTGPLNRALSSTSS

The target in this test is CRTH2 (Homo sapiens, UniProt Q9Y5Y4). Description: Binding activity to CRTH2 ([3H]PGD2 binding assay).

With `O=C(O)Cn1cc(C2=CCN(S(=O)(=O)c3ccc(F)cc3)CC2)c2ccccc21`, for the setting “read-out: CRTH2 inhibitory activity IC50, membrane fraction of CRTH2-transfected K562 cells”, the half-maximal inhibitory concentration (IC50) is 68 nM.
For the compound `O=C(O)Cn1cc(-c2cccc(NS(=O)(=O)c3ccc(F)cc3)c2)c2ccccc21`, the IC50 (read-out: CRTH2 inhibitory activity IC50, membrane fraction of CRTH2-transfected K562 cells, tested form: 0.8 MeOH solvate) came out at 35 nM.
For the compound `O=C(O)Cn1nc(-c2cccc(NS(=O)(=O)c3ccc(F)cc3)c2)c2ccccc21`, the IC50 (read-out: CRTH2 inhibitory activity IC50, membrane fraction of CRTH2-transfected K562 cells, tested form: MeOH solvate) worked out at 35 nM.

The values above are taken from patent US7534897B2 (Shionogi & Co., Ltd., priority 2002, dated 2009).
